Source: patent EP4834897A1, “COMPOUNDS WITH TWO AZAHETEROCYCLES SUBSTITUTED ISOINDOLINONE SKELETON AND USES THEREOF” (dated 2026)

Chains of the proteins cited; added tags and fusions are not shown.
UniProt Q96SW2, whole entry: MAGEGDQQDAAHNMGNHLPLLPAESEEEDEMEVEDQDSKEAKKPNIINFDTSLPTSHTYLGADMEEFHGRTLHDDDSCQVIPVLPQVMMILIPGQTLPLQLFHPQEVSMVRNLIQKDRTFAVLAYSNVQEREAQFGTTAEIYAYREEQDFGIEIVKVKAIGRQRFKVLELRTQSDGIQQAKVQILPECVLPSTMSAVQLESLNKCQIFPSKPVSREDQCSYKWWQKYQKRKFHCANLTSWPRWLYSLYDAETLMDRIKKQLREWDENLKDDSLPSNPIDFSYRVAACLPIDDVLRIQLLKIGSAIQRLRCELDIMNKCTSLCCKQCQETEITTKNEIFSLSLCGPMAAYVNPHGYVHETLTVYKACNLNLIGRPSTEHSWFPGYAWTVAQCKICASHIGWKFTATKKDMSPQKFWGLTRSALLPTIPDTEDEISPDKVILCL
UniProt Q9UKS7, whole entry: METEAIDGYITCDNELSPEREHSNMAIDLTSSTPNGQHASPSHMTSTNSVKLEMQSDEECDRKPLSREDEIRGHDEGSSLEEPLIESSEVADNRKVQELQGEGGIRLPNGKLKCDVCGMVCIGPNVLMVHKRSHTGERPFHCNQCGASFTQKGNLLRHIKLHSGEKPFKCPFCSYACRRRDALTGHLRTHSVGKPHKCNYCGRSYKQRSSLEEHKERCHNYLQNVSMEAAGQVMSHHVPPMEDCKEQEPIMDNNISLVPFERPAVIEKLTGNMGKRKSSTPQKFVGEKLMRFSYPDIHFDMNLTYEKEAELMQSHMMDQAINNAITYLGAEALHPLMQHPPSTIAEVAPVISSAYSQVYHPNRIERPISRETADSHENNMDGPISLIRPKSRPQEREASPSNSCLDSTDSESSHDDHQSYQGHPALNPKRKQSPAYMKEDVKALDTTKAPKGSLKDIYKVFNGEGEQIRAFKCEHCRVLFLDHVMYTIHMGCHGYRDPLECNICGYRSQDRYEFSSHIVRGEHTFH
UniProt Q9UKT9, whole entry: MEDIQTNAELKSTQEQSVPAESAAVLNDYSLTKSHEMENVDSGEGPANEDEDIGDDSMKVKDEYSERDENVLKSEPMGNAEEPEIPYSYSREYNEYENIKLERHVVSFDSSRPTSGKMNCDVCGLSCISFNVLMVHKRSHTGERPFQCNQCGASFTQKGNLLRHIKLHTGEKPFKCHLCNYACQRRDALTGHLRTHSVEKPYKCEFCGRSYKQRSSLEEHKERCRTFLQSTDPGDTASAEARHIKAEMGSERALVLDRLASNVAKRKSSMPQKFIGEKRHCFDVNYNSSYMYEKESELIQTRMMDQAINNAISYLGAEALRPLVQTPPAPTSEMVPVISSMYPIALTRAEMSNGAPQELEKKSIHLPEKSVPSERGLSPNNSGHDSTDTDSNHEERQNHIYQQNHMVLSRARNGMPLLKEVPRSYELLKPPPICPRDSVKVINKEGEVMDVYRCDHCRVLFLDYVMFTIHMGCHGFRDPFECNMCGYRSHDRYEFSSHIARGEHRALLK
UniProt P30291, whole entry: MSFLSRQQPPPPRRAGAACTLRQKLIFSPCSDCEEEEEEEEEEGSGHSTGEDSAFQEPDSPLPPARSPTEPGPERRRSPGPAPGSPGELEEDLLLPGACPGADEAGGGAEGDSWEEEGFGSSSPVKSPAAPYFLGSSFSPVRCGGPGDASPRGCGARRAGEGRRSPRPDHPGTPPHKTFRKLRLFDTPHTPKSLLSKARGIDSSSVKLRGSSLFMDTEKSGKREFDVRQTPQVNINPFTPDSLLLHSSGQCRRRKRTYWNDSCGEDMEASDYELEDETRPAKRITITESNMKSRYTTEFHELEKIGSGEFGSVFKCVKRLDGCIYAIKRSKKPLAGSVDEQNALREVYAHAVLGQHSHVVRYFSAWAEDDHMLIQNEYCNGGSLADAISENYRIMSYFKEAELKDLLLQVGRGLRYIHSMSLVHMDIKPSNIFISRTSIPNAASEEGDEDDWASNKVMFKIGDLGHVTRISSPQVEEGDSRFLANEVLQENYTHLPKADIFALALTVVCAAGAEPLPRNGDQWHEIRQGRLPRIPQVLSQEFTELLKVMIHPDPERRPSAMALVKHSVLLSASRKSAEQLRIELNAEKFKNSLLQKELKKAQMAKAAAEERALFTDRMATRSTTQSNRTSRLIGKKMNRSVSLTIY
UniProt Q13422, whole entry: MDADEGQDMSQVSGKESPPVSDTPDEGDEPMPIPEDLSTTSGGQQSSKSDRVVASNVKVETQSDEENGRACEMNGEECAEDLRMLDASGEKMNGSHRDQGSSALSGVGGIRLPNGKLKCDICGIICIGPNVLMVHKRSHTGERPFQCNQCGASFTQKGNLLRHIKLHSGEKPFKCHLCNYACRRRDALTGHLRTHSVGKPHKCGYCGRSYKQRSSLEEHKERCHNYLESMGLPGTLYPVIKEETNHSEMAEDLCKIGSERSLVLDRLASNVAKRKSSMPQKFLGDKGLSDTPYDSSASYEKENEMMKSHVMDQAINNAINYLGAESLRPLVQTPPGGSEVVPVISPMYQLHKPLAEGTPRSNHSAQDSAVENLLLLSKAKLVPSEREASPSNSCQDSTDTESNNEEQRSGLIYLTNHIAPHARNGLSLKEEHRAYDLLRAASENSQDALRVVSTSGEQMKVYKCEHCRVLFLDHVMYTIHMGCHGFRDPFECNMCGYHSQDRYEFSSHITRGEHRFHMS
UniProt P15170, whole entry: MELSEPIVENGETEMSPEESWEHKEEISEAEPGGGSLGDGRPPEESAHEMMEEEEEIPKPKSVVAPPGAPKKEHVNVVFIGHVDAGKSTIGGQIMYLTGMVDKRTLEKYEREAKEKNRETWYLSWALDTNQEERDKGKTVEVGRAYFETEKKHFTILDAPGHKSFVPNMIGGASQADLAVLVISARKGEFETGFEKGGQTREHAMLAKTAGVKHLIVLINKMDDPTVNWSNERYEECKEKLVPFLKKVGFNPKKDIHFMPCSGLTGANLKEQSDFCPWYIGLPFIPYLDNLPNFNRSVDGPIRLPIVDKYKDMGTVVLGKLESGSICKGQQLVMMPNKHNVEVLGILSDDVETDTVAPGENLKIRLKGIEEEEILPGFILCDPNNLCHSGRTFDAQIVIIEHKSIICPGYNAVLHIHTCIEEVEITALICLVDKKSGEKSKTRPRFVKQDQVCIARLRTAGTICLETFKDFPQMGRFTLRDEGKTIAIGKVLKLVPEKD
UniProt P48729, whole entry: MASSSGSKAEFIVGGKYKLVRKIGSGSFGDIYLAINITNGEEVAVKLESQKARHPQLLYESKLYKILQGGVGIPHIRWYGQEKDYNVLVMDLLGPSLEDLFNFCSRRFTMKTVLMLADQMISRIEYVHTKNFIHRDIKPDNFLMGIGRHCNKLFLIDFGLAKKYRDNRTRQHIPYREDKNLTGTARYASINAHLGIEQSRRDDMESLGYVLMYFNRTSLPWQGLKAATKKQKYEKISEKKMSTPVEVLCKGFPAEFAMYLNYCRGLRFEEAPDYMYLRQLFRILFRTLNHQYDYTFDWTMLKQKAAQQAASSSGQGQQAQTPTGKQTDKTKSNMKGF
UniProt Q16531, whole entry partner: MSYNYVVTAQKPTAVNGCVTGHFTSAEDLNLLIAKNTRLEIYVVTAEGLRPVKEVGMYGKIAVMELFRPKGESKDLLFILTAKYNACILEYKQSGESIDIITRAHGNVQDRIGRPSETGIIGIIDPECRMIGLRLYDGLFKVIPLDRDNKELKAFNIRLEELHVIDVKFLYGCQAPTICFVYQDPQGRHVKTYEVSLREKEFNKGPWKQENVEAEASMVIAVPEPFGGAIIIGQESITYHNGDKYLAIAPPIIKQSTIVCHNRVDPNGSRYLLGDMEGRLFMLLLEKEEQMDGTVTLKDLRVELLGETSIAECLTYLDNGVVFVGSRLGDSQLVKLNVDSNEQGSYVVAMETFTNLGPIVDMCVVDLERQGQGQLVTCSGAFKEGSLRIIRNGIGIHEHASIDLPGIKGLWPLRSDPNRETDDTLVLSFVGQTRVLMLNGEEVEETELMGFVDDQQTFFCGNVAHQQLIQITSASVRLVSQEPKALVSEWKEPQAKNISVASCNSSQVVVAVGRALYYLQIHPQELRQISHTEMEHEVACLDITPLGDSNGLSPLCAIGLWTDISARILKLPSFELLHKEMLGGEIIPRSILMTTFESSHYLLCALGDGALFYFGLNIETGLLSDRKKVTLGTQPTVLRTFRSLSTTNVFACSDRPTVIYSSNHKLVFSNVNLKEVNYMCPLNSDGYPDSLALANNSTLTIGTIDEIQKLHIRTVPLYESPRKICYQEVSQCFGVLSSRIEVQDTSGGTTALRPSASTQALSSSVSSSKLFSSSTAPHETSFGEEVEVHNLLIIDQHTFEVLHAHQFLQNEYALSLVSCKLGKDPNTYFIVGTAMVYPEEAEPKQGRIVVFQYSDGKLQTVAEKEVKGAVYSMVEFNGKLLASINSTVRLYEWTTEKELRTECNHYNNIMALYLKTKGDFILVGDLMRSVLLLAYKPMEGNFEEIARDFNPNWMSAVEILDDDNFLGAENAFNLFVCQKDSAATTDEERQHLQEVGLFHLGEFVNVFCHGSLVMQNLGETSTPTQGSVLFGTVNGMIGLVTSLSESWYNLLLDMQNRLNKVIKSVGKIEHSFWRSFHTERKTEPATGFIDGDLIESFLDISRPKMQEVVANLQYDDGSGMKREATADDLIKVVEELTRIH

Target: IKZF2 (Homo sapiens, UniProt Q96SW2+Q9UKS7)
Assay: Western blot assay of substrate protein degradation in hPBMCs
Conditions: 24 hours treatment, compounds at 50 nM and 500 nM (concentration behind the class not stated)

SMILES	substrate protein remaining % (IKZF2)
O=C1CCC(N2Cc3cc(CCN4CCC(N5CCN(C(c6ccccc6)c6ccccc6)CC5)CC4)ccc3C2=O)C(=O)N1 (stereo not drawn)	A (0% ≤ substrate protein remaining % ≤ 80%)
O=C1CCC(N2Cc3c(ccc(CN4CCC(N5CCN(C(c6ccccc6)c6ccccn6)CC5)C(F)(F)C4)c3F)C2=O)C(=O)N1 (stereo not drawn)	B (80%< substrate protein remaining %≤ 100%)

Target: IKZF3 (Homo sapiens, UniProt Q96SW2+Q9UKT9)
Assay: as above
Conditions: 24 hours treatment, compounds at 50 nM and 500 nM (concentration behind the class not stated)

SMILES	substrate protein remaining % (IKZF3)
O=C1CCC(N2Cc3cc(CCN4CCC(N5CCN(C(c6ccccc6)c6ccccc6)CC5)CC4)ccc3C2=O)C(=O)N1 (stereo not drawn)	A (0% ≤ substrate protein remaining % ≤ 80%)
O=C1CCC(N2Cc3c(ccc(CN4CCC(N5CCN(C(c6ccccc6)c6ccccn6)CC5)C(F)(F)C4)c3F)C2=O)C(=O)N1 (stereo not drawn)	A (0% ≤ substrate protein remaining % ≤ 80%)

Target: WEE1 (Homo sapiens, UniProt P30291+Q96SW2)
Assay: as above
Conditions: 24 hours treatment, compounds at 50 nM and 500 nM (concentration behind the class not stated)

SMILES	substrate protein remaining % (WEE1)
O=C1CCC(N2Cc3cc(CCN4CCC(N5CCN(C(c6ccccc6)c6ccccc6)CC5)CC4)ccc3C2=O)C(=O)N1 (stereo not drawn)	B (80%< substrate protein remaining %≤ 100%)
O=C1CCC(N2Cc3c(ccc(CN4CCC(N5CCN(C(c6ccccc6)c6ccccn6)CC5)C(F)(F)C4)c3F)C2=O)C(=O)N1 (stereo not drawn)	B (80%< substrate protein remaining %≤ 100%)

Target: IKZF1 (Homo sapiens, UniProt Q13422+Q96SW2)
Assay: as above
Conditions: 24 hours treatment, compounds at 50 nM and 500 nM (concentration behind the class not stated)

SMILES	substrate protein remaining % (IKZF 1)
O=C1CCC(N2Cc3cc(CCN4CCC(N5CCN(C(c6ccccc6)c6ccccc6)CC5)CC4)ccc3C2=O)C(=O)N1 (stereo not drawn)	A (0% ≤ substrate protein remaining % ≤ 80%)
O=C1CCC(N2Cc3c(ccc(CN4CCC(N5CCN(C(c6ccccc6)c6ccccn6)CC5)C(F)(F)C4)c3F)C2=O)C(=O)N1 (stereo not drawn)	B (80%< substrate protein remaining %≤ 100%)

Target: GSPT1 (Homo sapiens, UniProt P15170+Q96SW2)
Assay: as above
Conditions: 24 hours treatment, compounds at 50 nM and 500 nM (concentration behind the class not stated)

SMILES	substrate protein remaining % (GSPT1)
O=C1CCC(N2Cc3cc(CCN4CCC(N5CCN(C(c6ccccc6)c6ccccc6)CC5)CC4)ccc3C2=O)C(=O)N1 (stereo not drawn)	B (80%< substrate protein remaining %≤ 100%)
O=C1CCC(N2Cc3c(ccc(CN4CCC(N5CCN(C(c6ccccc6)c6ccccn6)CC5)C(F)(F)C4)c3F)C2=O)C(=O)N1 (stereo not drawn)	A (0% ≤ substrate protein remaining % ≤ 80%)

Target: CK1α (Homo sapiens, UniProt P48729+Q96SW2)
Assay: as above
Conditions: 24 hours treatment, compounds at 50 nM and 500 nM (concentration behind the class not stated)

SMILES	substrate protein remaining % (CK1a)
O=C1CCC(N2Cc3cc(CCN4CCC(N5CCN(C(c6ccccc6)c6ccccc6)CC5)CC4)ccc3C2=O)C(=O)N1 (stereo not drawn)	B (80%< substrate protein remaining %≤ 100%)
O=C1CCC(N2Cc3c(ccc(CN4CCC(N5CCN(C(c6ccccc6)c6ccccn6)CC5)C(F)(F)C4)c3F)C2=O)C(=O)N1 (stereo not drawn)	B (80%< substrate protein remaining %≤ 100%)

Target: CRBN (Homo sapiens, UniProt Q96SW2)
Assay: CRBN binding affinity by HTRF (CEREBLON BINDING kit)
Conditions: CRBN binding, HTRF, compound at 0.5 µM

SMILES	Inhibition Rate at 0.5 µM (%)
O=C1CCC(N2Cc3cc(CCN4CCC(N5CCN(C(c6ccccc6)c6ccccc6)CC5)CC4)ccc3C2=O)C(=O)N1 (stereo not drawn)	a6 (60% < a6 ≤ 70%)
O=C1CCC(N2Cc3c(ccc(CN4CCC(N5CCN(C(c6ccccc6)c6ccccn6)CC5)C(F)(F)C4)c3F)C2=O)C(=O)N1 (stereo not drawn)	a6 (60% < a6 ≤ 70%)

Same assay, conditions: CRBN binding, HTRF, compound at 2 µM

SMILES	Inhibition Rate at 2 µM (%)
O=C1CCC(N2Cc3cc(CCN4CCC(N5CCN(C(c6ccccc6)c6ccccc6)CC5)CC4)ccc3C2=O)C(=O)N1 (stereo not drawn)	a8 (80% < a8 ≤100%)
O=C1CCC(N2Cc3c(ccc(CN4CCC(N5CCN(C(c6ccccc6)c6ccccn6)CC5)C(F)(F)C4)c3F)C2=O)C(=O)N1 (stereo not drawn)	a7 (70% < a7 ≤80%)

Test system: IL-1α
Assay: Inflammatory cytokine release from PBMCs induced by PHA (flow cytometry CBA)
Conditions: 0.1 µM, PHA 1 µg/mL, 24 h

SMILES	Inhibition Rate (%) IL-1α
O=C1CCC(N2Cc3cc(CCN4CCC(N5CCN(C(c6ccccc6)c6ccccc6)CC5)CC4)ccc3C2=O)C(=O)N1 (stereo not drawn)	IV11 (60% < IV11 ≤ 70%)
O=C1CCC(N2Cc3c(ccc(CN4CCC(N5CCN(C(c6ccccc6)c6ccccn6)CC5)C(F)(F)C4)c3F)C2=O)C(=O)N1 (stereo not drawn)	IV11 (60% < IV11 ≤ 70%)

Same assay, conditions: 1 µM, PHA 1 µg/mL, 24 h

SMILES	Inhibition Rate (%) IL-1α
O=C1CCC(N2Cc3cc(CCN4CCC(N5CCN(C(c6ccccc6)c6ccccc6)CC5)CC4)ccc3C2=O)C(=O)N1 (stereo not drawn)	IV1 1
O=C1CCC(N2Cc3c(ccc(CN4CCC(N5CCN(C(c6ccccc6)c6ccccn6)CC5)C(F)(F)C4)c3F)C2=O)C(=O)N1 (stereo not drawn)	IV1 3

Test system: TNF-α
Assay: as above
Conditions: 0.1 µM, PHA 1 µg/mL, 24 h

SMILES	Inhibition Rate (%) TNF-α
O=C1CCC(N2Cc3cc(CCN4CCC(N5CCN(C(c6ccccc6)c6ccccc6)CC5)CC4)ccc3C2=O)C(=O)N1 (stereo not drawn)	IV10 (50% < IV 10 ≤ 60%)
O=C1CCC(N2Cc3c(ccc(CN4CCC(N5CCN(C(c6ccccc6)c6ccccn6)CC5)C(F)(F)C4)c3F)C2=O)C(=O)N1 (stereo not drawn)	IV11 (60% < IV11 ≤ 70%)

Same assay, conditions: 1 µM, PHA 1 µg/mL, 24 h

SMILES	Inhibition Rate (%) TNF-α
O=C1CCC(N2Cc3cc(CCN4CCC(N5CCN(C(c6ccccc6)c6ccccc6)CC5)CC4)ccc3C2=O)C(=O)N1 (stereo not drawn)	IV1 1
O=C1CCC(N2Cc3c(ccc(CN4CCC(N5CCN(C(c6ccccc6)c6ccccn6)CC5)C(F)(F)C4)c3F)C2=O)C(=O)N1 (stereo not drawn)	IV1 2

Test system: IL-10
Assay: as above
Conditions: 0.1 µM; PBMCs, PHA 1 µg/mL, 24 h

SMILES	Inhibition Rate (%) IL-10
O=C1CCC(N2Cc3cc(CCN4CCC(N5CCN(C(c6ccccc6)c6ccccc6)CC5)CC4)ccc3C2=O)C(=O)N1 (stereo not drawn)	IV8 (30% < IV8 ≤ 40%)
O=C1CCC(N2Cc3c(ccc(CN4CCC(N5CCN(C(c6ccccc6)c6ccccn6)CC5)C(F)(F)C4)c3F)C2=O)C(=O)N1 (stereo not drawn)	IV9 (40% < IV9 ≤ 50%)

Same assay, conditions: 1 µM; PBMCs, PHA 1 µg/mL, 24 h

SMILES	Inhibition Rate (%) IL-10
O=C1CCC(N2Cc3cc(CCN4CCC(N5CCN(C(c6ccccc6)c6ccccc6)CC5)CC4)ccc3C2=O)C(=O)N1 (stereo not drawn)	IV9 (40% < IV9 ≤ 50%)
O=C1CCC(N2Cc3c(ccc(CN4CCC(N5CCN(C(c6ccccc6)c6ccccn6)CC5)C(F)(F)C4)c3F)C2=O)C(=O)N1 (stereo not drawn)	IV1 0

Test system: IL-5
Assay: Inflammatory cytokine release from PBMCs induced by PMA + Ionomycin (flow cytometry CBA)
Conditions: 0.1 µM, 24 h

SMILES	Inhibition Rate (%) IL-5
O=C1CCC(N2Cc3c(ccc(CN4CCC(N5CCN(C(c6ccccc6)c6ccccn6)CC5)C(F)(F)C4)c3F)C2=O)C(=O)N1 (stereo not drawn)	IV8 (30% < IV8 ≤ 40%)

Same assay, conditions: 1 µM, 24 h

SMILES	Inhibition Rate (%) IL-5
O=C1CCC(N2Cc3c(ccc(CN4CCC(N5CCN(C(c6ccccc6)c6ccccn6)CC5)C(F)(F)C4)c3F)C2=O)C(=O)N1 (stereo not drawn)	IV1 0
